Results published in PubChem BioAssay (NCI).
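Grown in 96-well plates, cells were treated for 48 hours with each compound at five concentrations. Insufficient inhibition: endpoint recorded as highest concentration tested. Here, GI50 denotes the concentration required for 50% inhibition of growth. TGI: concentration producing complete growth inhibition.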

How the values were obtained:
Assay in all cases: inhibition of tumour cell growth, NCI panel, 48 h
SN12C renal = tested on: SN12C renal
KM12 colon = tested on: KM12 colon
PC-3 prostate = tested on: PC-3 prostate
HOP-92 NSCLC = tested on: HOP-92 NSCLC
IGROV1 ovarian = tested on: IGROV1 ovarian
MALME-3M melanoma = tested on: MALME-3M melanoma
TK-10 renal = tested on: TK-10 renal
A549 NSCLC = tested on: A549 NSCLC
T-47D breast = tested on: T-47D breast
NCI-H460 lung = tested on: NCI-H460 lung
HCT-116 colon = tested on: HCT-116 colon
HOP-62 NSCLC = tested on: HOP-62 NSCLC
NCI-H226 lung = tested on: NCI-H226 lung
U251 CNS = tested on: U251 CNS
NCI-H23 lung = tested on: NCI-H23 lung
SW-620 colon = tested on: SW-620 colon
HT29 colon = tested on: HT29 colon
UACC-257 melanoma = tested on: UACC-257 melanoma
CAKI-1 renal = tested on: CAKI-1 renal
HS 578T breast = tested on: HS 578T breast
NCI-H322M lung = tested on: NCI-H322M lung
ACHN renal = tested on: ACHN renal
OVCAR-8 ovarian = tested on: OVCAR-8 ovarian
MOLT-4 leukemia = tested on: MOLT-4 leukemia
786-0 renal = tested on: 786-0 renal
SR leukemia = tested on: SR leukemia
SNB-19 CNS = tested on: SNB-19 CNS
SF-268 CNS = tested on: SF-268 CNS
SNB-75 CNS = tested on: SNB-75 CNS
SK-MEL-2 melanoma = tested on: SK-MEL-2 melanoma
OVCAR-4 ovarian = tested on: OVCAR-4 ovarian
LOX IMVI melanoma = tested on: LOX IMVI melanoma
UO-31 renal = tested on: UO-31 renal
NCI/ADR-RES ovarian = tested on: NCI/ADR-RES ovarian
CCRF-CEM leukemia = tested on: CCRF-CEM leukemia
UACC-62 melanoma = tested on: UACC-62 melanoma
MCF7 breast = tested on: MCF7 breast
SK-MEL-5 melanoma = tested on: SK-MEL-5 melanoma
RXF 393 renal = tested on: RXF 393 renal
DU-145 prostate = tested on: DU-145 prostate
EKVX NSCLC = tested on: EKVX NSCLC
BT-549 breast = tested on: BT-549 breast
SF-295 CNS = tested on: SF-295 CNS
MDA-N = tested on: MDA-N
MDA-MB-231 breast = tested on: MDA-MB-231 breast
MDA-MB-435 = tested on: MDA-MB-435
SK-MEL-28 melanoma = tested on: SK-MEL-28 melanoma
HCT-15 colon = tested on: HCT-15 colon
COLO 205 colon = tested on: COLO 205 colon
HCC-2998 colon = tested on: HCC-2998 colon

Question: Which results are given for `CCOP(OCC)c1cn(CCCCOC(C)=O)nn1`?
Answer: GI50 (SN12C renal): > 100 µM; TGI (SN12C renal): > 100 µM; GI50 (KM12 colon): > 100 µM; TGI (KM12 colon): > 100 µM; GI50 (PC-3 prostate): > 100 µM; TGI (PC-3 prostate): > 100 µM; GI50 (HOP-92 NSCLC): > 100 µM; TGI (HOP-92 NSCLC): > 100 µM; GI50 (IGROV1 ovarian): > 100 µM; TGI (IGROV1 ovarian): > 100 µM; GI50 (MALME-3M melanoma): > 100 µM; TGI (MALME-3M melanoma): > 100 µM; GI50 (TK-10 renal): > 100 µM; TGI (TK-10 renal): > 100 µM; GI50 (A549 NSCLC): > 100 µM; TGI (A549 NSCLC): > 100 µM; GI50 (T-47D breast): > 100 µM; TGI (T-47D breast): > 100 µM; GI50 (NCI-H460 lung): > 100 µM; TGI (NCI-H460 lung): > 100 µM; GI50 (HCT-116 colon): > 100 µM; TGI (HCT-116 colon): > 100 µM; GI50 (HOP-62 NSCLC): > 100 µM; TGI (HOP-62 NSCLC): > 100 µM; GI50 (NCI-H226 lung): > 100 µM; TGI (NCI-H226 lung): > 100 µM; GI50 (U251 CNS): > 100 µM; TGI (U251 CNS): > 100 µM; GI50 (NCI-H23 lung): > 100 µM; TGI (NCI-H23 lung): > 100 µM; GI50 (SW-620 colon): > 100 µM; TGI (SW-620 colon): > 100 µM; GI50 (HT29 colon): > 100 µM; TGI (HT29 colon): > 100 µM; GI50 (UACC-257 melanoma): > 100 µM; TGI (UACC-257 melanoma): > 100 µM; GI50 (CAKI-1 renal): > 100 µM; TGI (CAKI-1 renal): > 100 µM; GI50 (HS 578T breast): > 100 µM; TGI (HS 578T breast): > 100 µM; GI50 (NCI-H322M lung): > 100 µM; TGI (NCI-H322M lung): > 100 µM; GI50 (ACHN renal): > 100 µM; TGI (ACHN renal): > 100 µM; GI50 (OVCAR-8 ovarian): > 100 µM; TGI (OVCAR-8 ovarian): > 100 µM; GI50 (MOLT-4 leukemia): > 100 µM; TGI (MOLT-4 leukemia): > 100 µM; GI50 (786-0 renal): > 100 µM; TGI (786-0 renal): > 100 µM; GI50 (SR leukemia): > 100 µM; TGI (SR leukemia): > 100 µM; GI50 (SNB-19 CNS): > 100 µM; TGI (SNB-19 CNS): > 100 µM; GI50 (SF-268 CNS): > 100 µM; TGI (SF-268 CNS): > 100 µM; GI50 (SNB-75 CNS): > 100 µM; TGI (SNB-75 CNS): > 100 µM; GI50 (SK-MEL-2 melanoma): > 100 µM; TGI (SK-MEL-2 melanoma): > 100 µM; GI50 (OVCAR-4 ovarian): > 100 µM; TGI (OVCAR-4 ovarian): > 100 µM; GI50 (LOX IMVI melanoma): > 100 µM; TGI (LOX IMVI melanoma): > 100 µM; GI50 (UO-31 renal): > 100 µM; TGI (UO-31 renal): > 100 µM; GI50 (NCI/ADR-RES ovarian): > 100 µM; TGI (NCI/ADR-RES ovarian): > 100 µM; GI50 (CCRF-CEM leukemia): > 100 µM; TGI (CCRF-CEM leukemia): > 100 µM; GI50 (UACC-62 melanoma): > 100 µM; TGI (UACC-62 melanoma): > 100 µM; GI50 (MCF7 breast): > 100 µM; TGI (MCF7 breast): > 100 µM; GI50 (SK-MEL-5 melanoma): > 100 µM; TGI (SK-MEL-5 melanoma): > 100 µM; GI50 (RXF 393 renal): > 100 µM; TGI (RXF 393 renal): > 100 µM; GI50 (DU-145 prostate): > 100 µM; TGI (DU-145 prostate): > 100 µM; GI50 (EKVX NSCLC): > 100 µM; TGI (EKVX NSCLC): > 100 µM; GI50 (BT-549 breast): > 100 µM; TGI (BT-549 breast): > 100 µM; GI50 (SF-295 CNS): > 100 µM; TGI (SF-295 CNS): > 100 µM; GI50 (MDA-N): > 100 µM; TGI (MDA-N): > 100 µM; GI50 (MDA-MB-231 breast): > 100 µM; TGI (MDA-MB-231 breast): > 100 µM; GI50 (MDA-MB-435): > 100 µM; TGI (MDA-MB-435): > 100 µM; GI50 (SK-MEL-28 melanoma): > 100 µM; TGI (SK-MEL-28 melanoma): > 100 µM; GI50 (HCT-15 colon): > 100 µM; TGI (HCT-15 colon): > 100 µM; GI50 (COLO 205 colon): > 100 µM; TGI (COLO 205 colon): > 100 µM; GI50 (HCC-2998 colon): > 100 µM; TGI (HCC-2998 colon): > 100 µM
